The values that follow come from patent US6858428B2, “Human and animal cell culture medium containing antithrombin III for suppressing cell death” (Agency of Industrial Science and Technology, priority 1999, dated 2005).

This assay has as its system hepatoma cell line HepG2. Nature of the assay: Survival of hepatoma cell line HepG2 in serum-free culture (viable cell count after 3 days). The class given is cell-based. As for the experimental part:
Two mL cell suspension of hepatoma cell line HepG2 dispersed in trypsin (5×10^5 cells) were inoculated on six multi-well plates and pre-culture by using Dulbecco's modified Eagle medium (DMEM) containing 5% fetal bovine serum, 1.6 g/L sodium hydrogencarbonate, 0.584 g/L L-glutamine, and 0.08 g/L kanamycin sulfate at 37° C. in a 5% CO2 gas phase. After one day, the broth was recovered, the cell surfaces were washed with serum-free medium, and the culture was continued for another 3 days with the addition of medium containing 5%, 0% fetal bovine serum, and 2 mL of fresh medium comprising the growth factors and hormones given in Table 1, which have been reported as survival factors, and antithrombin III, albumin, orosomucoid, transferrin, or typical serum proteins such as α1-antitrypsin, which were added to media containing no fetal bovine serum (0%). The viable cell count was assayed after 3 days of culture.
The hepatoma cell line HepG2 was pre-cultured in the same manner as in Example 1. After 1 day, the broth was recovered, the cell surfaces were washed with serum-free medium, and the culture was continued for another 3 days with the addition of medium containing 5%, 0% fetal bovine serum, or 2 mL of fresh medium comprising antithrombin III added in concentrations ranging from 1 to 25 μg/mL to media containing no fetal bovine serum (0%). […]

As for “Albumin: typical serum protein used for comparison”, for the setting “HepG2, DMEM without fetal bovine serum, additive 225 μg/ml”, the Survival rate is on record as 65.0%. Besides, the “Effect in controlling cell death (in words)” value (HepG2, serum-free medium, concentration not given) is given as “virtually no effect in controlling cell death”.
